The values below are quoted from earlier work in patent publication US20230265432A1, “METHODS AND COMPOSITIONS FOR TREATING ACUTE MYELOID LEUKEMIA” (Sanford Burnham Prebys Medical Discovery Institute, priority 2021, published 2023).

Amino acid sequences for entries named in this document (tags omitted).
UniProt O95696, whole entry: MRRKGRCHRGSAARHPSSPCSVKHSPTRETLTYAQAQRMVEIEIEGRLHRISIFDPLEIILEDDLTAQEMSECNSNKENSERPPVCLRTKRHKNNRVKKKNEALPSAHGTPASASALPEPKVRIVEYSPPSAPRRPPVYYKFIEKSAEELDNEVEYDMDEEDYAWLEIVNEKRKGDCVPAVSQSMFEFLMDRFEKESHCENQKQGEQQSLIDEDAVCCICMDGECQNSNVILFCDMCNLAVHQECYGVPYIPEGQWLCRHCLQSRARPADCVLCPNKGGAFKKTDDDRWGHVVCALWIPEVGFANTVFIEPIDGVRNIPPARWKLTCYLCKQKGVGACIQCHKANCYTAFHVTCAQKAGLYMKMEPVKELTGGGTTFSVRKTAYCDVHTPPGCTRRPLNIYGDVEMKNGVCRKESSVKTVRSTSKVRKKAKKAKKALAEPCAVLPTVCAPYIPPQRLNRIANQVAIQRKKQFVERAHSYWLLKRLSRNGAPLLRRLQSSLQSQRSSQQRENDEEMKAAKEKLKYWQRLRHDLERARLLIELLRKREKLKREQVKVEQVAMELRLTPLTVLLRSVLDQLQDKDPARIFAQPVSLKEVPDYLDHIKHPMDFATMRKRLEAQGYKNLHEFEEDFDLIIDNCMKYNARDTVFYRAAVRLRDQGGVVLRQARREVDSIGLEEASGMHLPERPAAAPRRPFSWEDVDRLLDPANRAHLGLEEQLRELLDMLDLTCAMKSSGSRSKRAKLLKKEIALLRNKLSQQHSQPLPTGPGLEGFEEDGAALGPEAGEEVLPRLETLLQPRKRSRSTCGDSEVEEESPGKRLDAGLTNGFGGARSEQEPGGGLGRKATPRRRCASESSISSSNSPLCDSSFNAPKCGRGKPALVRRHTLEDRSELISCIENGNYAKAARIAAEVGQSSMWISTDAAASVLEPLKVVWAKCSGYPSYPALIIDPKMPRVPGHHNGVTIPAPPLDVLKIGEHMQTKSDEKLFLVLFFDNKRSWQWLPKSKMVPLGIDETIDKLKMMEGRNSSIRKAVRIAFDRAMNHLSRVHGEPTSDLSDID

For the series, the target named is BRPF2 (Homo sapiens, UniProt O95696). The settings on record: cited from earlier work.

In general, Kd refers to the free concentration of one partner at which half of the binding sites on the other are occupied at equilibrium, for simple one-to-one binding. For the compound `COc1cc2c(cc1NS(=O)(=O)c1ccc(Br)cc1C)n(C)c(=O)n2C`, the Kd was 500 nM.
